In ChEMBL document CHEMBL1131253, “A pyridoxine cyclic phosphate and its 6-azoaryl derivative selectively potentiate and antagonize activation of P2X1 receptors” (J Med Chem, 1998):

Biological target: T1, P2X purinoceptor 3 (Rattus norvegicus, UniProt P49654)
T1 sequence (P49654 whole entry): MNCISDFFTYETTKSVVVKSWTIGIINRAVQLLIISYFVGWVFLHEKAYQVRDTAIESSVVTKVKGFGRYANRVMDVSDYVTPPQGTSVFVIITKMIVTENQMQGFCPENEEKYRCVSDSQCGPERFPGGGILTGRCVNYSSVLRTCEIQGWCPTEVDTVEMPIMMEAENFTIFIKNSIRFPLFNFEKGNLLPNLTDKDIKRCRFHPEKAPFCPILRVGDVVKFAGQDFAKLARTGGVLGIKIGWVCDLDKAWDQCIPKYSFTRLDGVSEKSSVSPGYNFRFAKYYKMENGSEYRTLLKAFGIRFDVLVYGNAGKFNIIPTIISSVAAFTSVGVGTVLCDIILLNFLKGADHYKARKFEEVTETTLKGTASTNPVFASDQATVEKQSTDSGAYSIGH
Assay: Compound was tested in a functional ion channel assay of ATP-induced current at recombinant rat P2X3 receptor expressed in Xenopus oocytes.
Type: cell-based, Oocyte

IC50: 83.5 µM
Structure (SMILES): Cc1nc(/N=N/c2cc(S(=O)(=O)O)ccc2S(=O)(=O)O)c(COP(=O)(O)O)c(C=O)c1O [ISOPPADS]
